By IC50 is commonly meant the concentration at which inhibition is half-maximal. Low values mean greater potency, high ones weaker potency.

Protein sequences, listed by entry. Tags and fused reporters are not part of them.
UniProt P00533, whole entry: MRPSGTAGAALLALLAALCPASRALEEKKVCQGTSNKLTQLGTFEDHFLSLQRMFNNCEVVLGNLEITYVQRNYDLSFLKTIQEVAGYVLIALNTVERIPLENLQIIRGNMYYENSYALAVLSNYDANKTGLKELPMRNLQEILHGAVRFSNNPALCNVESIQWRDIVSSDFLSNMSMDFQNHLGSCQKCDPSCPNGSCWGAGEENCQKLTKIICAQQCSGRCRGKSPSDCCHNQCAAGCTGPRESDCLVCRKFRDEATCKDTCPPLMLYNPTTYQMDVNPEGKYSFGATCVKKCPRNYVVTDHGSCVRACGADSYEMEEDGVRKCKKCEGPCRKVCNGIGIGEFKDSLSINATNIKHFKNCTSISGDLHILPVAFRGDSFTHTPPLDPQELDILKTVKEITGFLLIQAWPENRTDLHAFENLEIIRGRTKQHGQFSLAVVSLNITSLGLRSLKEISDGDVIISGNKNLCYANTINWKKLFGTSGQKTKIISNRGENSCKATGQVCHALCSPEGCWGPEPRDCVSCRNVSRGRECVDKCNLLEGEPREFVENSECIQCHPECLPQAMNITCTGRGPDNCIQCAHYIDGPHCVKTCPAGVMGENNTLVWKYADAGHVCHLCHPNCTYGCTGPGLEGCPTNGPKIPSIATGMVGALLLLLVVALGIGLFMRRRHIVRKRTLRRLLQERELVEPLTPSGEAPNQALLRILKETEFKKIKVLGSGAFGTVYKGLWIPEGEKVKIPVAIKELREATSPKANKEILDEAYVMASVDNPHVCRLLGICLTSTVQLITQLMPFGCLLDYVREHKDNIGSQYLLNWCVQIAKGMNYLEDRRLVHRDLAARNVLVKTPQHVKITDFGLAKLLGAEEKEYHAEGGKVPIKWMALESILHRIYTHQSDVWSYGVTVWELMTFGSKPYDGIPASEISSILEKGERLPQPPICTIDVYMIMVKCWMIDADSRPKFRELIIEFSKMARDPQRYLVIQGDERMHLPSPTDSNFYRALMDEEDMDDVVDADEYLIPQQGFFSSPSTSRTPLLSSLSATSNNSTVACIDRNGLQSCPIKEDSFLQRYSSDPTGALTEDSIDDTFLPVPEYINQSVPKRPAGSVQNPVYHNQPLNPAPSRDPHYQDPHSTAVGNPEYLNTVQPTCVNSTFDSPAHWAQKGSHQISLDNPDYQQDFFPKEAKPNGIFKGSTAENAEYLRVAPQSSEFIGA

In experiment [1] the test system is A-431. As to the kind of experiment: Concentration required to inhibit growth of human carcinoma epidermoid (A431) cell line. It counts as functional, cell-based.
Experiment [2] addresses Epidermal growth factor receptor (Homo sapiens, UniProt P00533).

Take `C=C(CN1CCOCC1)C(=O)Nc1ccc2ncc(C#N)c(Nc3ccc(F)c(Cl)c3)c2c1`: the half-maximal inhibitory concentration (IC50) was found to be 260 nM in experiment [1] and 2700 nM in experiment [2].

Turning to `CCOc1cc2ncc(C#N)c(Nc3cccc(Br)c3)c2cc1NC(=O)/C=C/CN(C)C`, it took 130 nM to reach half-maximal inhibition in experiment [1] (IC50).

As for `CCOc1cc2ncc(C#N)c(Nc3cccc(Br)c3)c2cc1NC(=O)/C=C/CN1CCOCC1`, the IC50 is 140 nM in experiment [1] and 10300 nM in experiment [2].
